Measured values from patent US20250136617A1 (The Regents of the University of Colorado, A Body Corporate, priority 2022, published 2025).

The chains behind the UniProt entries cited, without tags or fusion partners.
UniProt P61073, whole entry: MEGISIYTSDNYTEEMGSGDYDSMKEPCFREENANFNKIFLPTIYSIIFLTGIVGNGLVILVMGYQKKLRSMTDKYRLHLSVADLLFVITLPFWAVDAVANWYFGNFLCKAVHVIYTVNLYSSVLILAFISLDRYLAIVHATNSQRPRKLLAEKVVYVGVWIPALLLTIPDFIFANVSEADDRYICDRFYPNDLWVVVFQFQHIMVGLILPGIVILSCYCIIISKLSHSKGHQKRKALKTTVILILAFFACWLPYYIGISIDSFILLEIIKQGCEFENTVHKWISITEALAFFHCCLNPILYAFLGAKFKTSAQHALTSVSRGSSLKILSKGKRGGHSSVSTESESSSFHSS

Legend:
[1] = biological target: CXCR4 (Homo sapiens, UniProt P61073); experiment: β-arrestin recruitment, 384-well, Tango CXCR4-bla U2OS cells, normalized to SDF-1α; assay type: cell-based; settings: for EC50: read-out: TANGO β-arrestin EC50
Method: UCUF-728 was further characterized in 384 w assays using SDF-1α from a different source than was used in the high throughput screening assay. […] Using this ligand source, UCUF-728 confirmed activation of β-arrestin recruitment with EC50=0.5 μM and Emax=30% normalized to SDF-1α (FIG. 2A).
Tango™ CXCR4-bla U2OS Cells (Invitrogen; K1779) were used for (β-arrestin recruitment assays and maintained as a monolayer culture in McCoy's 5a (Corning; 10-050-CV) supplemented with 10% dialyzed Fetal Bovine Serum (Gibco; 26400-044), 0.1 mM MEM Non-essential amino acids solution, 25 mM HEPES solution (Corning; 25-060-CI), 1 mM Sodium Pyruvate (Gibco; 11360-070), 200 μg/mL Zeocin selection reagent (Gibco; R25001), 50 μg/mL Hygromycin B (Gibco, 10687010), and 100 μg/mL Geneticin (G418 Sulfate) (Gibco, 10131035). U2OS cells were subcultured twice weekly by 0.05% Trypsin-EDTA treatment (Corning; 25-051-CI) and passaged to continue exponential growth phase for cell signaling assays. All cell cultures were maintained in cell culture incubators at 37° C. with 5% CO2. CHO-K1 CXCR4 cells (DiscoverX, Fremont, CA, USA) were used for cAMP inhibition assays and maintained as a monolayer culture in DMEM/F12 (Corning; 10-091-CV) supplemented with 10% Fetal Bovine Serum (Corning; 35-011-CV) and 100IU penicillin, […] streptomycin sulfate (Corning; 30-002-CI) and […] G418 (Gibco; 101310350. Cells were subculture 2 times weekly by o.o5% Trypsin-EDTA treatment (Corning; 25-051-CI) and passaged to continue exponential growth phase for cell signaling assays. All cell cultures were maintained in cell culture incubators at 37° C. with 5% CO2.CEM-CCRF cells (ATCC CCL-119) were used in both the migration and calcium flux assays and were cultured in growth media consisting of RPMI 1640 (Corning; 10-040-CV) supplemented with 10% Fetal Bovine Serum (Corning; 35-011-CV), and 100 IU penicillin, […] streptomycin sulfate (Corning; 30-002-CI). Cells were maintained in suspension and sub-cultured twice weekly to maintain cell densities between 0.8×10^6 cells/mL and 2.5×10^6 cells/mL to maintain exponential growth phase. Cells were harvested for use in migration and calcium flux assays at 2.0×10^6 cells/mL to 2.5×10^6 cells/mL and resuspended in assay media to desired density for respective experiments.
Compounds, SDF-1α (PeproTech; 30028A), and DMSO (Sigma Aldrich; St. Louis, MO) normalization to 0.5% were dispensed using the TECAN D300e digital dispenser into a 384-well black wall clear-bottom microplate (Corning; Corning, NY). Tango™ CXCR4-bla U2OS Cells were resuspended in assay media consisting of DMEM (Corning; Corning, NY) supplemented with 1% dialyzed Fetal bovine serum, 0.1 mM MEM Non-essential amino acids solution, 25 mM HEPES solution (Corning; Corning, NY), 1 mM Sodium Pyruvate and 100 IU penicillin, […] streptomycin sulfate (Corning; Corning, NY) at a density of 3.0×10^5 cells/ml. Assay media FreeStyle 293 expression Medium (Gibco; 12338018) was used for testing the thiadiazine scaffold CXCR4 agonists. Cells suspension was dispensed at 30 μl per well into assay plate and incubated overnight in a cell culture incubator at 37° C. with 5% CO2. For testing the thiadiazine scaffold CXCR4 agonists, following overnight incubation, CXCL12 ligand (PeproTech; 30028A), was dispensed manually and cells were incubated for additional 5 hours in a cell culture incubator. Following overnight incubation, LiveBlazer FRET B/G Loading Kit (Invitrogen; K1095) working reagent was prepared according to supplier guidelines and 6 μl of solution was dispensed into each well; 8 μL of solution for testing the thiadiazine scaffold CXCR4 agonists. Assay plate was covered and incubated in a dark place for two hours and Fluorescence Intensity was measured using the BMG LABTECH CLARIOstar Plus (BMG LABTECH Inc., Cary, NC) according to the LiveBlazer FRET B/G Loading Kit excitation and emission measurement guidelines. […]

[2] = system: CEM-CCRF human lymphoblast cells; experiment: Transwell migration assay in CEM-CCRF lymphoblasts; assay type: cell-based; settings: for EC50: read-out: Migration CEM EC50

Row | Compound | TANGO β-arrestin Emax (%) ([1]; normalized to SDF-1) | EC50 ([1]; normalized to SDF-1) [µM] | Migration CEM Emax (%) [2] | EC50 [2] [µM] | EC50 ([1]; Table 3, Formula IIc-1) [µM] | EC50 ([2]; Table 3, Formula IIc-1) [µM]
1 | CCOc1ccccc1-c1nnc2n1N=C(c1ccc(O)cc1)CS2 | A (A ≥ 70) | < 5 | A (A ≥ 70) | < 5 | – | –
2 | CCOC(=O)CNC(=O)c1ccc(C2=Nn3c(nnc3-c3ccccc3OCC)SC2)cc1 | C (C ≤ 35) | < 5 | – | > 10 | – | –
3 | CCOc1ccccc1-c1nnc2n1N=C(c1ccc3[nH]c(=O)[nH]c3c1)CS2 | – | – | – | – | > 10 | > 10
4 | CCOc1ccccc1-c1nnc2n1N=C(c1ccc(C(=O)N3CCC3)cc1)CS2 | – | > 10 | B (35 < B < 70) | < 5 | – | –

Like-named read-outs stand apart in the source and are kept apart here.
